# pKd: −log10 of the molar value.
# Sequences of proteins named here, by UniProt entry; tags and fusion partners are left off. A change or cut given only in a name is not applied to a line headed by its entry.
# UniProt O43924: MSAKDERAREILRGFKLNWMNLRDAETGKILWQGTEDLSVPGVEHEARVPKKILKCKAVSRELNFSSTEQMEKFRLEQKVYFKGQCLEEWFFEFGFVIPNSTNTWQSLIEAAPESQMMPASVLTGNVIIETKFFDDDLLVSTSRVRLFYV
# Biological target: Retinal rod rhodopsin-sensitive cGMP 3',5'-cyclic phosphodiesterase subunit delta (Homo sapiens, UniProt O43924)
smiles,measurement,value
c1ccc(Cn2c(-c3ccc(OC[C@H](C4CCNCC4)n4c(-c5ccccc5)nc5ccccc54)cc3)nc3ccccc32)cc1,pKd,> 8.00
